The values that follow are results of earlier work, collected in patent US8802639B2, “RNA interference modulators of hedgehog signaling and uses thereof” (Curis, Inc., priority 2004, dated 2014).

The series concerns embryonic prostate. As to conditions: W. Bushman, unpublished result; cited from earlier work.

On to `CC1=C2C[C@H]3[C@@H](CC=C4C[C@@H](O)CC[C@@]43C)[C@@H]2CC[C@]12O[C@@H]1C[C@H](C)CN[C@H]1[C@H]2C` [cyclopamine], for which the “growth and branching of embryonic prostate” value is “inhibits growth and branching”.
